Consider 81 compounds from PubChem BioAssay AID588590 (National Center for Advancing Translational Sciences (NCATS), 2011).

By UniProt entry, the sequences of proteins in these tests, tags left out.
UniProt Q9UNA4, whole entry: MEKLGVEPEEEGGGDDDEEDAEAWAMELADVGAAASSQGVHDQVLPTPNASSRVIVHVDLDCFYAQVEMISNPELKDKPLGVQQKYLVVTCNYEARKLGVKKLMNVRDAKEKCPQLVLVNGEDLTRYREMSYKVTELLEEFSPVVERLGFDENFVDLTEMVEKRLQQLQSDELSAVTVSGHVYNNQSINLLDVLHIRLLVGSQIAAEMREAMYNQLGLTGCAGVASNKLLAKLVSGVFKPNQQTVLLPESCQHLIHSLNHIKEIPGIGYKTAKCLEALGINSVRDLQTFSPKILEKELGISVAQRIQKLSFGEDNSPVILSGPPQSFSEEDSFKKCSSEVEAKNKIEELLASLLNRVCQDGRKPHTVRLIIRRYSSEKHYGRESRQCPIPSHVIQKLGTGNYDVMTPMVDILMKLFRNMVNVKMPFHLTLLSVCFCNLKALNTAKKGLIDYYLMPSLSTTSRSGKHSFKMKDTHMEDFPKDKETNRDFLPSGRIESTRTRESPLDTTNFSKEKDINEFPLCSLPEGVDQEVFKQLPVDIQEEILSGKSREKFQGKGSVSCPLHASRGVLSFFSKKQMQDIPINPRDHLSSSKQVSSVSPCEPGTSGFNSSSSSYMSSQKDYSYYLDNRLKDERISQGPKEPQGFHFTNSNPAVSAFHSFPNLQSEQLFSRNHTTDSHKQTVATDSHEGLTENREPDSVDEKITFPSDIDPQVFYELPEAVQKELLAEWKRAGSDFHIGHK

The list shows a part of the results, in another mix than the full data. Results filed as inconclusive are left out. A call without a number means that no potency is given here. Activity calls are given as the source filed them. Calls come from the whole dose curve; as a rule, active = well fitted inhibition curve with a large enough effect; inconclusive = small, poorly fitted or top-dose-only effect, or another doubt; inactive = no such curve, though single readings can be large or run the other way.
Potency is the fitted concentration of half-maximal effect.

In this test the target is DNA polymerase iota (Homo sapiens) (UniProt Q9UNA4). Briefly: qHTS for Inhibitors of Polymerase Iota. The settings on record: Pol iota fluorescent replication assay, 10 min; series mostly up to 115 µM.
For the compound `Nc1ccc2c(ccc3cccnc32)n1.O=[N+]([O-])c1cc([N+](=O)[O-])c(O)c([N+](=O)[O-])c1`, the Potency result is “inactive”. In the case of `CCOC(=O)c1ccc(NP(C)(=O)Oc2ccc(Cl)cc2)cc1` (stereo unspecified), the Potency entry is “inactive”. Regarding `CP(=O)(OC12CC3CC(CC(C3)C1)C2)OC12CC3CC(CC(C3)C1)C2`, the Potency result was “inactive”. Next, `COc1ccccc1OP(C)(=O)Nc1ccccc1Br` (stereo unspecified): “inactive”; `CC(C)(C)c1ccc(OP(C)(=O)O)cc1`: “inactive”; `CP(=O)(Nc1ccc(Cl)cc1)Oc1ccc(F)cc1` (stereo unspecified): “inactive”. In the case of `CN(C)C(=O)c1c([N+](=O)[O-])cc([N+](=O)[O-])cc1[N+](=O)[O-]`, the Potency entry is “inactive”. In the case of `CCN(CC)CC(O)COC(=O)C(O)(c1ccccc1)C1CCCCC1` (stereo unspecified), the Potency entry was “inactive”.

Turning to `COc1ccc(OP(C)(=O)Nc2ccc(Br)cc2)cc1` (stereo unspecified), the Potency entry is “inactive”. Consider `N#[O+].[C-]#N.[C-]#N.[C-]#N.[C-]#N.[C-]#N.[Fe+2].[Na+].[Na+]`, for which the Potency result was “inactive”. Next, `COc1ccccc1OP(C)(=O)Nc1c(C)n(C)n(-c2ccccc2)c1=O` (stereo unspecified): “inactive”; `O=C(OCCCN1CCCC1)C(O)(c1ccccc1)C1CCCCC1` (stereo unspecified): “inactive”; `CP(=O)(Oc1ccccc1)N1CCOC1=O` (stereo unspecified): “inactive”. On to `CCc1ccc(OP(C)(=O)Nc2cccnc2)cc1` (stereo unspecified), for which the Potency result was “inactive”. Next, `Cc1c(NP(C)(=O)Oc2ccc(C(C)C)cc2)c(=O)n(-c2ccccc2)n1C` (stereo unspecified): “inactive”; `CP(=O)(Nc1ccccn1)Oc1ccccc1` (stereo unspecified): “inactive”.

Regarding `COc1ccccc1OP(C)(=O)Nc1ccc(C)cc1C` (stereo unspecified), the Potency entry is “inactive”. Regarding `CCc1ccc(OP(C)(=O)O)cc1`, the Potency result was “inactive”. With `COc1ccccc1OP(C)(=O)Nc1ccc(Br)cc1` (stereo unspecified), the Potency entry was “inactive”. Take `CN(C)CCOC(=O)C(O)(c1ccccc1)C1CCCC1` (stereo unspecified): the Potency entry is “inactive”. Next, `CP(=O)(Nc1ccc(Cl)cc1Cl)Oc1ccccc1` (stereo unspecified): “inactive”; `CCCCCCCCCCCCCCCC1C[N+](C)(C)CCOP(C)(=O)O1` (stereo unspecified): “inactive”; `CP(=O)(OCCOc1ccccc1)OCCOc1ccccc1`: “inactive”.

Turning to `Cc1cc(C)cc(OP(C)(=O)Nc2cccc(C(F)(F)F)c2)c1` (stereo unspecified), the Potency entry is “inactive”. Consider `COc1ccccc1OP(C)(=O)Nc1ccc(C)c(C)c1` (stereo unspecified), for which the Potency result is “inactive”. On to `COc1ccc(OP(C)(=O)Nc2ccccc2Br)cc1` (stereo unspecified), for which the Potency entry was “inactive”. Next, `Cc1c([N+](=O)[O-])cc([N+](=O)[O-])c(Br)c1[N+](=O)[O-]`: “inactive”. With `CCN(CC)CCCOC(=O)C(O)(c1ccccc1)C1CCCCC1` (stereo unspecified), the Potency result was “inactive”.

`CP(=O)(Nc1ccccc1)Oc1ccc(F)cc1` (stereo unspecified): the Potency result was “inactive”. As to `CCCCCOc1ccc(NP(C)(=O)Oc2ccc(Cl)cc2Cl)cc1` (stereo unspecified), the Potency entry is “inactive”. On to `CCOC(=O)c1ccc(NP(C)(=O)Oc2ccc(F)cc2)cc1` (stereo unspecified), for which the Potency entry is “inactive”. As for `COc1ccc(OP(C)(=O)Nc2ccc(SC(F)(F)F)cc2)cc1` (stereo unspecified), the Potency entry was “inactive”. `CP(=O)(Nc1ccccc1F)Oc1ccccc1` (stereo unspecified): the Potency result was “inactive”.

With `CC(C)c1ccc(OP(C)(=O)Nc2ccc(SC(F)(F)F)cc2)cc1` (stereo unspecified), the Potency entry was “inactive”. In the case of `CP(=O)(Nc1ccc2c(c1)OCCO2)Oc1ccccc1` (stereo unspecified), the Potency entry was “inactive”.

`Cc1ccccc1NP(C)(=O)Nc1ccccc1C`: the Potency entry was “inactive”. Next, `CP(=O)(Nc1ccc(SC(F)(F)F)cc1)Oc1ccc(F)cc1` (stereo unspecified): “inactive”. Then `CCOP(C)(=S)SCC(=O)NC(C)(CC)C(=O)O` (stereo unspecified), with “inactive”; and `O=[N+]([O-])c1ccc(OP2(=O)COCCO2)cc1` (stereo unspecified), with “inactive”; and `Cc1cc(-c2cccc3ccccc23)c(C)cn1.O=[N+]([O-])c1cc([N+](=O)[O-])c(O)c([N+](=O)[O-])c1`, with “inactive”. As for `Cc1c(C(c2ccc3c(c2)OCO3)c2c(C)n(C)n(-c3ccccc3)c2=O)c(=O)n(-c2ccccc2)n1C.O=[N+]([O-])c1cc([N+](=O)[O-])c(O)c([N+](=O)[O-])c1`, the Potency entry is “inactive”. As to `COc1ccc(OP(C)(=O)Nc2cccc(Br)c2)cc1` (stereo unspecified), the Potency result was “inactive”. Turning to `CN(C)CCOC(=O)C(O)(c1ccccc1)C1CCCCC1` (stereo unspecified), the Potency entry was “inactive”. Turning to `COc1ccc(NP(C)(=O)Oc2ccccc2OC)cc1` (stereo unspecified), the Potency entry was “inactive”.

As to `CN1CCCCC1COC(=O)C1(O)c2ccccc2CCc2ccccc21` (stereo unspecified), the Potency result is “inactive”. Consider `CCCOc1ccc(NP(C)(=O)Oc2ccc(Cl)cc2)cc1` (stereo unspecified), for which the Potency result was “inactive”. As to `CP(=O)(Nc1ccc(SC(F)(F)F)cc1)Oc1ccccc1` (stereo unspecified), the Potency entry is “inactive”. Next, `CC1=C2N=C(C=C3N=C(C(C)=C4[N-][C@@](C)([C@@H]5N=C1[C@](C)(CCC(=O)NC[C@@H](C)OP(=O)([O-])O[C@H]1[C@@H](O)[C@@H](n6cnc7cc(C)c(C)cc76)O[C@@H]1CO)[C@H]5CC(N)=O)[C@@](C)(CC(N)=O)[C@@H]4CCC(N)=O)[C@@](C)(CC(N)=O)[C@@H]3CCC(N)=O)C(C)(C)[C@@H]2CCC(N)=O.[C-]#N.[Co+3]`: active: 20 µM. On to `O=[N+]([O-])c1cc([N+](=O)[O-])c(Nc2nnnn2CCO)c([N+](=O)[O-])c1`, for which the Potency entry was “inactive”. Take `O=[N+]([O-])c1cc([N+](=O)[O-])c(-c2cnn(-c3ccccc3)c2)c([N+](=O)[O-])c1`: the Potency entry was “inactive”.

In the case of `Cc1nc2ccc3ccccc3c2s1.O=[N+]([O-])c1cc([N+](=O)[O-])c(O)c([N+](=O)[O-])c1`, the Potency result was “inactive”. Regarding `O=[N+]([O-])c1cc([N+](=O)[O-])c(-n2nnc3ccccc32)c([N+](=O)[O-])c1`, the Potency result was “inactive”.

Regarding `Cc1ccc(C)c(NP(C)(=O)Oc2ccccc2)c1` (stereo unspecified), the Potency entry was “inactive”. `Cc1cc(C)cc(OP(C)(=O)Nc2ccccn2)c1` (stereo unspecified): the Potency entry is “inactive”. `CP(=O)(Nc1cccc(Br)c1)Oc1ccccc1` (stereo unspecified): the Potency entry is “inactive”. `COc1ccccc1OP(C)(=O)Nc1cccc(Br)c1` (stereo unspecified): the Potency entry was “inactive”. As to `CCOC(=O)c1ccc(NP(C)(=O)Oc2cc(C)cc(C)c2)cc1` (stereo unspecified), the Potency result was “inactive”. In the case of `Cc1cc(C)cc(OP(C)(=O)Nc2ccc(C)cc2C)c1` (stereo unspecified), the Potency result was “inactive”. As to `CC1=NCCc2c1[nH]c1ccccc21.O=[N+]([O-])c1cc([N+](=O)[O-])c(O)c([N+](=O)[O-])c1`, the Potency result is “inactive”. Take `COc1ccccc1OP(C)(=O)Nc1ccc(C)cc1` (stereo unspecified): the Potency entry is “inactive”.

As for `Cc1ccc(NP(C)(=O)Oc2ccccc2)c(C)c1` (stereo unspecified), the Potency entry was “inactive”. On to `CCOC(=O)c1ccc(NP(C)(=O)Oc2ccccc2)cc1` (stereo unspecified), for which the Potency entry is “inactive”. Then `Cc1cc(C)cc(OP(C)(N)=O)c1` (stereo unspecified), with “inactive”; and `COc1ccccc1OP(C)(=O)Nc1cc(Cl)ccc1C` (stereo unspecified), with “inactive”; and `O=[N+]([O-])c1ccc2c(c1)C=Nc1ccccc1O2`, with “inactive”. For the compound `CC(C)(C)c1ccc(OP(C)(=O)Nc2ccc(SC(F)(F)F)cc2)cc1` (stereo unspecified), the Potency result is “inactive”. Next, `Cc1cccc(C)c1OP(C)(N)=O` (stereo unspecified): “inactive”; `CCN(CC)CCCOC(=O)C(O)(c1ccccc1)c1ccccc1`: “inactive”. Then `CCOC(=O)c1ccc(NP(C)(=O)Oc2ccc(OC)cc2)cc1` (stereo unspecified), with “inactive”.

As for `O=[N+]([O-])c1cc([N+](=O)[O-])c(O)c([N+](=O)[O-])c1.c1ccc(Oc2ccncc2)cc1`, the Potency result was “inactive”.

As to `CCOP(C)(=S)SCC(=O)NC(C)C(=O)O` (stereo unspecified), the Potency entry is “inactive”. Then `CP(=O)(Nc1ccccn1)Oc1ccc(Cl)cc1` (stereo unspecified), with “inactive”; and `Cc1cccc(C)c1OP(C)(=O)Nc1ccc(SC(F)(F)F)cc1` (stereo unspecified), with “inactive”.

`CP(=O)(Nc1ccc(SC(F)(F)F)cc1)Oc1ccc(Cl)cc1` (stereo unspecified): the Potency result is “inactive”. Regarding `CP(=O)(Oc1ccccc1)OC(c1ccccc1)C(F)(F)F` (stereo unspecified), the Potency result is “inactive”. With `CP(=O)(NC(=O)Nc1ccccc1)Oc1ccccc1` (stereo unspecified), the Potency result was “inactive”. Regarding `CCc1ccc(OP(C)(=O)N2CCN(c3ccc([N+](=O)[O-])cc3)CC2)cc1` (stereo unspecified), the Potency entry is “inactive”. As to `Cc1cc(C)cc(OP(C)(=O)Nc2ccc(SC(F)(F)F)cc2)c1` (stereo unspecified), the Potency entry was “inactive”. `CP(=S)(Nn1cnnc1)Oc1ccccc1` (stereo unspecified): the Potency result was “inactive”. As to `CP(=O)(Nc1ccccc1Br)Oc1ccccc1` (stereo unspecified), the Potency result was “inactive”. On to `COc1ccccc1OP(C)(=O)Nc1ccccc1` (stereo unspecified), for which the Potency result was “inactive”.
